## Apparent affinities of Ab-14 variants for a coronavirus HR2 peptide

Binding partner: SARS-CoV-2 spike HR2 peptide, sequence PDVDLGDISGINAS.

Parent scFv Ab-14: VH joined to VL by the linker GGGGSGGGGSGGGGS. Changes lie in the heavy chain CDRs alone.
VH: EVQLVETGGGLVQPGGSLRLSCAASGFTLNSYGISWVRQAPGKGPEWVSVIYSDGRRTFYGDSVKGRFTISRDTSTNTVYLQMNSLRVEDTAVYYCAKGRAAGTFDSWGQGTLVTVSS
VL: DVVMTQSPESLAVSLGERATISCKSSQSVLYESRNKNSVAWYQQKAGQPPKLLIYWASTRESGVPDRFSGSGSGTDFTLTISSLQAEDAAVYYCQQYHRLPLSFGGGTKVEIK

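The parent was found by panning a naive human phage display library on the peptide. Library AAYL49 holds single substitutions and randomly drawn double and triple substitutions in the CDRs. The scFvs were displayed on barcoded MATa yeast, the peptide on MATalpha yeast. The frequency of each diploid, read from paired DNA barcodes, reflects how well the two displayed proteins bind. The ratio of observed to expected reads was calibrated, replicate by replicate, on BCL2-family standards whose Kd was known from biolayer interferometry. Mating was done three times.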

Each variant's VH is given in full. Numbers give log10(Kd / nM), so 0 is 1 nM and 3 is 1 µM. Smaller is tighter. Averages over replicates are reported, and they cover detected replicates only. "ND" means that the variant was in the library but no mating with the target was seen in that replicate; the authors take this as a sign of poor binding, and no number exists. Parent in this assay: reference entry 0.65, copy in this library 4.11 (one replicate of three). Background: pairings of library AAYL49 with three empty control strains gave a value in 15% of cases (median 4.06, 5th percentile 2.83). Values in that range, when seen in few replicates, are hard to tell from nonspecific mating. For each scFv, signals with the empty controls are counted beside the result.

With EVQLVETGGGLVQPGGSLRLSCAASGFTLNSYQISWVRQAPGKGPEWVSVIYSWGRRTFYGDSVKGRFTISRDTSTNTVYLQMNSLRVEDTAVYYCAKGRAAMTFDSWGQGTLVTVSS the result was ND, ND, ND (controls 1 of 9).
With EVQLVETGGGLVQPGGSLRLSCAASGFTLNSYGISWVRQAPGKGPEWVSVIYSDGRRTFYGQSVKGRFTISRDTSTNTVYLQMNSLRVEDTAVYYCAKGRAAGTFYSWGQGTLVTVSS the result was 1.25, 2.74, 1.95 (mean 1.98; controls 0 of 9).
With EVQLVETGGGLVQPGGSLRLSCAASGFTLNSYLISWVRQAPGKGPEWVSVIYSDGRRTFYGDTVKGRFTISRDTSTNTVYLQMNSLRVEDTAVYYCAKGRAAGTFDPWGQGTLVTVSS the result was ND, ND, ND (controls 0 of 9).
With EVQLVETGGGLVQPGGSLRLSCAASGHTLNSYGPSWVRQAPGKGPEWVSVIYSDGRRSFYGDSVKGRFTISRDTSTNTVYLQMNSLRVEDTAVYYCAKGRAAGTFDSWGQGTLVTVSS the result was 4.21, ND, ND (controls 3 of 9).
With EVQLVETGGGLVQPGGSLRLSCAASGFTLNMYGNSWVRQAPGKGPEWVSVIYSDGRREFYGDSVKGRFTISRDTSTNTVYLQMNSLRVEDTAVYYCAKGRAAGTFDSWGQGTLVTVSS the result was ND, ND, ND (controls 0 of 9).
With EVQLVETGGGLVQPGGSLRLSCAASGFTSNSYGISWVRQAPGKGPEWVSVIRSVGRRTFYGDSVKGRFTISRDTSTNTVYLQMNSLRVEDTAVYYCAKGRAAGTFDSWGQGTLVTVSS the result was 2.67, ND, ND (controls 0 of 9).
With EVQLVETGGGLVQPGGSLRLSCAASGFTLNRGGISWVRQAPGKGPEWVSVIYSDGRRTFYGDSVKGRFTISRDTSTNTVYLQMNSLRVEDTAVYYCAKGRAAGTFDMWGQGTLVTVSS the result was ND, ND, ND (controls 0 of 9).
With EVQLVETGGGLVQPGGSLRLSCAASGTTLNSYGISWVRQAPGKGPEWVSVIYSVGRYTFYGDSVKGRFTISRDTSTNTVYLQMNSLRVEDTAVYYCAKGRAAGTFDSWGQGTLVTVSS the result was ND, 3.37, ND (controls 0 of 9).
With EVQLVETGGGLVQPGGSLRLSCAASGFTLNSYGISWVRQAPGKGPEWVSVIYSDGRKRFYGDSVKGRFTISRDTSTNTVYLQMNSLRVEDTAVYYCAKGRAAETFDSWGQGTLVTVSS the result was 4.85, 3.98, ND (mean 4.42; controls 3 of 9).
With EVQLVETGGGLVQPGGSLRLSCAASGFTTNSYGISWVRQAPGKGPEWVSVIDSDPRRTFYGDSVKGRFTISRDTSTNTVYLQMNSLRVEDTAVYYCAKGRAAGTFDSWGQGTLVTVSS the result was ND, ND, ND (controls 3 of 9).
With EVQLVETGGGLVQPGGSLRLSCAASGFTLNSSGASWVRQAPGKGPEWVSVIYSDGRRTFYGDSVKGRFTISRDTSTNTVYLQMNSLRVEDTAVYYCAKGRAAGTADSWGQGTLVTVSS the result was 5.74, ND, 5.64 (mean 5.69; controls 2 of 9).
With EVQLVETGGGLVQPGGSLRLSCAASGYTLNSYGISWVRQAPGKGPEWVSVIYQDYRRTFYGDSVKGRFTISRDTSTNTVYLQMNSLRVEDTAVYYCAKGRAAGTFDSWGQGTLVTVSS the result was ND, 3.07, ND (controls 1 of 9).
With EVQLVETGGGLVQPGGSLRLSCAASGFTLNSYFISWVRQAPGKGPEWVSVIYHDGRRTFYGDSVKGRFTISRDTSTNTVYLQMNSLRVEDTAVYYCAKGRAAGEFDSWGQGTLVTVSS the result was 2.48, 2.52, 2.57 (mean 2.52; controls 1 of 9).
With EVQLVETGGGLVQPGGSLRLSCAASGFTLNSYGISWVRQAPGKGPEWVSVIYSDGRRTFYGDSVEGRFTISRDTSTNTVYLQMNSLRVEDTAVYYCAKGRAEGDFDSWGQGTLVTVSS the result was 2.95, 1.64, 1.91 (mean 2.17; controls 0 of 9).
With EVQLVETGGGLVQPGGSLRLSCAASGITLNSKGIHWVRQAPGKGPEWVSVIYSDGRRTFYGDSVKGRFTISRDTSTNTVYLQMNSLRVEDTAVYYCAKGRAAGTFDSWGQGTLVTVSS the result was ND, ND, 3.75 (controls 0 of 9).
With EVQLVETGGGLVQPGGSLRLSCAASGFTRNEYGISWVRQAPGKGPEWVSVIYSDGRRTFYGLSVKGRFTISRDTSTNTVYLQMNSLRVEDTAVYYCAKGRAAGTFDSWGQGTLVTVSS the result was ND, 3.81, ND (controls 2 of 9).
With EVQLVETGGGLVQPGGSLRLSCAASGITLNSYEISWVRQAPGKGPEWVSVIYSDGRRTFYGDSVKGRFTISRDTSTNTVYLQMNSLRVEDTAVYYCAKGRAAGTYDSWGQGTLVTVSS the result was ND, ND, ND (controls 0 of 9).
With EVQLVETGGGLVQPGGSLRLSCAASGFTLNSYGISWVRQAPGKGPEWVSVIYSDGRRPFYGDSVKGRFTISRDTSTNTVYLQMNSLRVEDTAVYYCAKGRKAGTHDSWGQGTLVTVSS the result was ND, ND, ND (controls 3 of 9).
With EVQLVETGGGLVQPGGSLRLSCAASGFTLNSYGISWVRQAPGKGPEWVSVIYSDARRTFYGDSVAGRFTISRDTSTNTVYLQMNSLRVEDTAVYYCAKGRAKGTFDSWGQGTLVTVSS the result was ND, ND, ND (controls 0 of 9).
With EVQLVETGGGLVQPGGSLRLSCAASGFTLNSYGISWVRQAPGKGPEWVSVIYSDGRRKFYCDSVRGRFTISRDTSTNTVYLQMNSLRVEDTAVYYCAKGRAAGTFDSWGQGTLVTVSS the result was 0.67, 0.86, 1.34 (mean 0.96; controls 1 of 9).
With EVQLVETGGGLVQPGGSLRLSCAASGFFLNSYGISWVRQAPGKGPEWVSVIYSDGRRTFYGDSVKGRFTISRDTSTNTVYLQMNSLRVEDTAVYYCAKGRAATTFHSWGQGTLVTVSS the result was ND, 3.08, 4.13 (mean 3.60; controls 0 of 9).
With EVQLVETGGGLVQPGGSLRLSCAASGFTLNSYGISWVRQAPGKGPEWVSRIYSDGRRTFYGDSYKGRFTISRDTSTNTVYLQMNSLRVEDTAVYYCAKGRPAGTFDSWGQGTLVTVSS the result was 3.42, ND, ND (controls 3 of 9).
With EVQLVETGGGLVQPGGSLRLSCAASGFTLNSYGISWVRQAPGKGPEWVSVISSDGKRTFYGDSVYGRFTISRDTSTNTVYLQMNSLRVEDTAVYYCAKGRAAGTFDSWGQGTLVTVSS the result was 6.22, 4.44, ND (mean 5.33; controls 3 of 9).
With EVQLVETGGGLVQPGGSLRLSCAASGFTLNSYGISWVRQAPGKGPEWVSVNYSDGRRTFYGDFVKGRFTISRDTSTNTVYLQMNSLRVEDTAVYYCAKGRAAGSFDSWGQGTLVTVSS the result was ND, ND, ND (controls 2 of 9).
With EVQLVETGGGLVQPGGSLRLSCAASGFQLNSYGSSWVRQAPGKGPEWVSVIYSDGRRTFYGDSVKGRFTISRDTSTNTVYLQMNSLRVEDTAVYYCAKGRAAGTFVSWGQGTLVTVSS the result was ND, ND, ND (controls 0 of 9).
With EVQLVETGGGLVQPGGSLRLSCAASGFTLNSYGFSWVRQAPGKGPEWVSVIYSDGRKTFYGDSVKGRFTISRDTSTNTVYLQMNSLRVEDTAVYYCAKERAAGTFDSWGQGTLVTVSS the result was ND, ND, ND (controls 0 of 9).

The measurements come from Engelhart et al. 2022 (doi:10.1038/s41597-022-01779-4) through the FLAb antibody collection.